{"source": "patent US20130039956A1", "about": "“USE OF NITROCARBOXYLIC ACIDS FOR THE TREATMENT, DIAGNOSIS AND PROPHYLAXIS OF AGGRESSIVE HEALING PATTERNS” (priority 2010, published 2013)", "tested_on": "Human epithelial lung cells (A549)", "experiment": "Membrane protein mediated cytotoxicity (NaF) in epithelial cells, MTT assay", "conditions": "10 and 50 μmol, 2 hours preincubation, NaF 1-8 mmol; compared with native FA", "data": [{"substance": "9,10-nitro-cis-oleic acid [compound 10]", "values": [{"measurement": "Relative effect on NaF-induced cytotoxicity", "result": "+"}]}]}
